The values that follow are results of earlier work, collected in patent publication US11702469B2, “Recombinant EGFL7, EGFL7 antibodies, and uses thereof” (Ohio State Innovation Foundation, priority 2017, dated 2023).

For this data set, the system named is acute myeloid leukemia. The following applies: low-dose maintenance therapy vs none; cited from earlier work.

Regarding “Interleukin-2: low-dose recombinant interleukin-2 maintenance therapy”, the patient outcome is on record as “not associated with differences in patient outcome”.
